Source: US7214686B2, “Pharmaceutical compositions and methods for effecting dopamine release” (priority 1997, dated 2007)

Sequences of proteins named here, by UniProt entry; tags and fusion partners are left off. Residues count along the entry.
UniProt P09483, 31-630: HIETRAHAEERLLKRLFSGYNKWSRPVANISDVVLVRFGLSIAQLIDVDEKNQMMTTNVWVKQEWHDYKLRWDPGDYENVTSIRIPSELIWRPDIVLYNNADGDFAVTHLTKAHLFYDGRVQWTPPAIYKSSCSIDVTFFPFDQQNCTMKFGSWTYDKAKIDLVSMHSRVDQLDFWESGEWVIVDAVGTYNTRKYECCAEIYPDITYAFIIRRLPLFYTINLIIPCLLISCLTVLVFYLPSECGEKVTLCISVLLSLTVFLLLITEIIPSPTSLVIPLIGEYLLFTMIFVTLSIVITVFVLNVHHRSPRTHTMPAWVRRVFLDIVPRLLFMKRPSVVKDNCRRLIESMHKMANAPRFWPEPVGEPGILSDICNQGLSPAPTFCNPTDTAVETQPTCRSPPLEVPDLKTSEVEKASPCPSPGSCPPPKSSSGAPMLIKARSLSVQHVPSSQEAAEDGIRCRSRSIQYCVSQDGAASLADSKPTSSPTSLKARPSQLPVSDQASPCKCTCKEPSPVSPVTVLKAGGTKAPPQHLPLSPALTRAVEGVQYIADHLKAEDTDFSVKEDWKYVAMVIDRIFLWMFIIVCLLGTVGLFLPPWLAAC
UniProt P12390, 25-500: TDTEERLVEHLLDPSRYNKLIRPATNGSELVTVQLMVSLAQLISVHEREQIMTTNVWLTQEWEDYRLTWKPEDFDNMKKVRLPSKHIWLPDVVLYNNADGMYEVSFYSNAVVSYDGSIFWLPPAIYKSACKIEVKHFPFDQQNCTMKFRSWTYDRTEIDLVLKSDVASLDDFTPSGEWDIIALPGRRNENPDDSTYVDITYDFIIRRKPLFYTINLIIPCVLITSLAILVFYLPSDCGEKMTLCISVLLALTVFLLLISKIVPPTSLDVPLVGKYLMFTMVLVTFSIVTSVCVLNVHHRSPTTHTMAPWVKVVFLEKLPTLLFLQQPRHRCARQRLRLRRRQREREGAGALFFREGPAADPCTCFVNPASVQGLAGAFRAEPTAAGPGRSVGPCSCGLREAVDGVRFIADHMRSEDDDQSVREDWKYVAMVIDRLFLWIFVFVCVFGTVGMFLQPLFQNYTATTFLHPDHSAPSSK
UniProt P02708, 21-457: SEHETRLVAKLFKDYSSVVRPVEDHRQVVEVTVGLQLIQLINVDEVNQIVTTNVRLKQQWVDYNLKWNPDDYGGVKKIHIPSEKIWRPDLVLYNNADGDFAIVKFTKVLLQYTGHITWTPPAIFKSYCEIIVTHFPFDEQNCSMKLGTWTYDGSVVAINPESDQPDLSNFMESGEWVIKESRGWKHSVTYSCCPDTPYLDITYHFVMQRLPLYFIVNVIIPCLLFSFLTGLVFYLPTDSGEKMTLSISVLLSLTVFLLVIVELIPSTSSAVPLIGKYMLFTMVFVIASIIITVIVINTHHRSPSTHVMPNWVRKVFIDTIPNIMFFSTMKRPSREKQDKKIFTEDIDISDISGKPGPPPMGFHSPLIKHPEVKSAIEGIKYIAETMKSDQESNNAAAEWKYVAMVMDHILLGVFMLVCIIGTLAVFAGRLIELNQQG
UniProt P07510, 23-517: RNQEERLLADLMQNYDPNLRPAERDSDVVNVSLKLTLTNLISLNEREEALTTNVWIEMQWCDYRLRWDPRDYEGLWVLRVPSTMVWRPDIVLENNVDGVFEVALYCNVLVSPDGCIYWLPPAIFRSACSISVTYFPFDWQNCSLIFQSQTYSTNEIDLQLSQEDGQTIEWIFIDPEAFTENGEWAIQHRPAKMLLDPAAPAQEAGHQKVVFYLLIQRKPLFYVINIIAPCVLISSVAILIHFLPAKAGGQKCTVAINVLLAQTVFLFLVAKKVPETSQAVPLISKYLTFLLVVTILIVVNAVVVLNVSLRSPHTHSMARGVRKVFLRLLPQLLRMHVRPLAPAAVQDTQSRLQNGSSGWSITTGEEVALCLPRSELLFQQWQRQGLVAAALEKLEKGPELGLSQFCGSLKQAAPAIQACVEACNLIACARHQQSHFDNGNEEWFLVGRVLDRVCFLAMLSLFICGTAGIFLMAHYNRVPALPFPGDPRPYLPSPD
UniProt Q07001, 22-517: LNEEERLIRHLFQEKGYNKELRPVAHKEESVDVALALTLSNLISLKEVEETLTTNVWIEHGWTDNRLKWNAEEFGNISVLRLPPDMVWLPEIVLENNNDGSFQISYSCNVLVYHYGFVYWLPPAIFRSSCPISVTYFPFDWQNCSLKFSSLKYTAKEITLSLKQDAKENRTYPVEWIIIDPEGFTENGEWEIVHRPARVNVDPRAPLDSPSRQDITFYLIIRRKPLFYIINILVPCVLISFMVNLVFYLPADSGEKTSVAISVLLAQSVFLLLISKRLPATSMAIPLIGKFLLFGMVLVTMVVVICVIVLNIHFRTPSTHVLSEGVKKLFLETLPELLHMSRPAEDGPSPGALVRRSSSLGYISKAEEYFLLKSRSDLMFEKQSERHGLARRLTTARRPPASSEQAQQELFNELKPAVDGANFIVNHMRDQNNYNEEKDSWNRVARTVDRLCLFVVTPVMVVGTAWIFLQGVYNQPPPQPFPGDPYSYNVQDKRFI
UniProt P04757, 26-499: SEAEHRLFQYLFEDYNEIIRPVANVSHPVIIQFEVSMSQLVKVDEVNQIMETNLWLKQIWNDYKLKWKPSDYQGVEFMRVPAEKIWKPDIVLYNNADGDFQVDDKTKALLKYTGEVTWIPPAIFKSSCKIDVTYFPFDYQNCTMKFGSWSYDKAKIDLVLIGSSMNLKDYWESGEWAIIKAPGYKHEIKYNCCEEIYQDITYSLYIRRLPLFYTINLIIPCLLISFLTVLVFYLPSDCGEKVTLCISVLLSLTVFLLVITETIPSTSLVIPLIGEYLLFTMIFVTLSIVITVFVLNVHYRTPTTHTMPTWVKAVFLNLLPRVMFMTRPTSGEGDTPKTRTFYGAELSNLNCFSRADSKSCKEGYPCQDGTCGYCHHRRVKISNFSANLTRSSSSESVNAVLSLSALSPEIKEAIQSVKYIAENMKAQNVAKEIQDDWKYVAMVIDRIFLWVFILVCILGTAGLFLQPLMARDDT
UniProt P12392, 21-495: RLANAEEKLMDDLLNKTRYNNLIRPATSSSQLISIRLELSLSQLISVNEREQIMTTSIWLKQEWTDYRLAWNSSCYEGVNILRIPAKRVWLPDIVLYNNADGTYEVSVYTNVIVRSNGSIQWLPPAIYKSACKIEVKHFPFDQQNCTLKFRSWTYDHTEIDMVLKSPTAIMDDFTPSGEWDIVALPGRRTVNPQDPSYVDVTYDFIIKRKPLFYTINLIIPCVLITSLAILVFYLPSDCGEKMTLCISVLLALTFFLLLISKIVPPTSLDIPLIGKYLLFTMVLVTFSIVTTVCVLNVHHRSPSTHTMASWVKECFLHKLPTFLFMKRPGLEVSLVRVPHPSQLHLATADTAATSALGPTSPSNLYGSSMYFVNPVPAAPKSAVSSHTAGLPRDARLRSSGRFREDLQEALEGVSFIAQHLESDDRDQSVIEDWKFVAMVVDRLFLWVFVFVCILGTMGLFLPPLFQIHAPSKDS

Tests used:
α4β2 nAChR subtype = molecular target: T1, α4β2 nAChR subtype (Rattus norvegicus, UniProt P09483+P12390); assay: biochemical; type: binding
T1 construct: The cerebral cortex was removed and placed in 20 volumes (weight:volume) of ice-old preparative buffer; from tissue; host or cells: rat cerebral cortex membranes

[1] = molecular target: T2, human muscle nAChR subtype (TE671/RD cells) (Homo sapiens, UniProt P02708+P07510+Q07001); type: cell-based; details: for amounts causing muscle effects relative to those required to cause dopamine release: muscle effects vs dopamine release
T2 construct: These cells express receptors that have pharmacological; endogenous in cells; host or cells: TE671/RD (human embryonal rhabdomyosarcoma)
Description: (§1) Cells were cultured in Dulbecco's modified Eagle's medium (Gibco/BRL) with 10% horse serum (Gibco/BRL), 5% fetal bovine serum (HyClone, Logan Utah), 1 mM sodium pyruvate, 4 mM L-Glutamine, and 50,000 units penicillin-streptomycin (Irvine Scientific). When cells were 80% confluent, they were plated to 6 well polystyrene plates (Costar). Experiments were conducted when the cells reached 100% confluency.
(§2) On the day of the experiment, growth media was gently removed from the well and growth media containing ^86Rubidium chloride (10^6 μCi/mL) was added to each well. Cells were incubated at 37° C. for a minimum of 3 h. […] Next, cells were exposed to either 100 μM of test compound, 100 μM of L-nicotine (Acros Organics) or buffer alone for 4 min. Following the exposure period, the supernatant containing the released ^86Rb^+ was removed and transferred to scintillation vials. Scintillation fluid was added and released radioactivity was measured by liquid scintillation counting.
Within each assay, each point had 2 replicates, which were averaged. The amount of ^86Rb^+ release was compared to both a positive control (100 μM L-nicotine) and a negative control (buffer alone) to determine the percent release relative to that of L-nicotine.
(§3) When appropriate, dose-response curves of test compound were determined. The maximal activation for individual compounds (Emax) was determined as a percentage of the maximal activation induced by L-nicotine. The compound concentration resulting in half maximal activation (EC50) of specific ion flux was also determined.

[2] = molecular target: T3, rat ganglionic nAChR subtype (PC12 cells) (Rattus norvegicus, UniProt P04757+P12392); assay: cell-based; type: cell-based; details: for amounts causing effects upon ganglia relative to those required to cause dopamine release: ganglia effects vs dopamine release
T3 construct: These cells express ganglion-like nAChRs; endogenous in cells; host or cells: PC12 (rat pheochromocytoma)
Description: Activation of rat ganglion nAChRs was established on the pheochromocytoma clonal line PC12, which is a continuous clonal cell line of neural crest origin, derived from a tumor of the rat adrenal medulla.
as §1, with “Nunc” for “polystyrene”, “(Nunclon) and coated with 0.03% poly-L-lysine (Sigma, dissolved in 100 mM boric acid).” for “(Costar).”, “80%” for “100%”
as §2, with “nicotine” for “L-nicotine (Acros Organics)”
Within each assay, each point had 2 replicates, which were averaged. The amount of ^86Rb^+ release was compared to both a positive control (100 μM nicotine) and a negative control (buffer alone) to determine the percent release relative to that of L-nicotine.
as §3

[3] = tested on: striatal synaptosomes (dopamine release); assay: cells; type: cell-based, rat

| SMILES | Ki (α4β2 nAChR subtype) [nM] | amounts causing muscle effects relative to those required to cause dopamine release [1] | amounts causing effects upon ganglia relative to those required to cause dopamine release [2] | Dopamine Release Ecmax [3] | EC50 ([3]; Rattus norvegicus, read-out: Dopamine Release EC50) [nM] | Muscle Effect Ecmax [1] | EC50 [2] [nM] |
| --- | --- | --- | --- | --- | --- | --- | --- |
| Brc1cncc(C2CC3CCN2CC3)c1 (racemic) [Sample No. 2, (+/−)-2-(5-bromo-3-pyridyl)-1-azabicyclo[2.2.2]octane] | 1 | many times | many times |  |  |  |  |
| c1cncc([C@H]2C[C@@H]3CCN2C3)c1 (relative stereo) [Sample No. 3, exo 2-(3-pyridyl)-1-azabicyclo[2.2.1]heptane] | 0.5 |  |  |  |  |  |  |
| c1cncc([C@@H]2C[C@@H]3CCN2C3)c1 (relative stereo) [Sample No. 4, endo-2-(3-pyridyl)-1-azabicyclo[2.2.1]heptane] | 2.5 |  |  |  |  |  |  |
| CCOc1cncc(C2CC3CCN2CC3)c1.Cl.Cl (stereo not shown) [Sample No. 7, 2-(5-ethoxy-3-pyridyl)-1-azabicyclo[2.2.2]octane dihydrochloride] | 1 |  |  |  |  |  |  |
| CC(C)Oc1cncc(C2CC3CCN2CC3)c1.Cl.Cl (stereo not shown) [Sample No. 8, 2-(5-isopropoxy-3-pyridyl)-1-azabicyclo[2.2.2]octane dihydrochloride] | 0.4 | many times | many times | 31 | 31 | 115 | 10000 |
